The list is not random: actives were taken first. Their share in the collection is about 16%.
miR-21 reporter: raises the signal of a miR-21 reporter; Potency, µM (doses to about 38.3 µM); HeLa miR-21 FLuc reporter, luciferase, 48 h; AID 2288; 340,000 tested, under 10 active; active = well fitted rising curve with a large enough effect; inconclusive = small, poorly fitted or top-dose-only effect; inactive = no such curve, though single readings can be large or run the other way;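 further: miR-21 action dims this reporter so a rising signal means less miR-21 action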
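Using DMEM plus 10% FBS, HeLa miR-21-FLuc cells are incubated with test compounds (final up to about 40uM) for 48 hours; firefly luciferase signal is then imaged following reagent-mediated lysis.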
uPA surface inh: cell surface uPA generation inhibition. Potency, µM (top dose mostly 38.3 µM), usual class: inhibitors. 0.31% of 330,000 active. cell surface uPA generation assay, qHTS. AID 540303; active = well fitted inhibition curve with a large enough effect; inconclusive = small, poorly fitted or top-dose-only effect; inactive = no such curve, though single readings can be large or run the other way; tested in mouse RAW 264.7 cells; also: nearly all actives have a fitted effect of over 55% in size
TDP1 inh: TDP1 (human) enzyme inhibition; AID 485290; Potency, µM (series often up to 130 µM), hits mostly inhibitors; recombinant TDP1, AlphaScreen DNA substrate cleavage; Q9NUW8; 0.28% of 350,000 active; also: nearly all actives have a fitted effect of over 40% in size
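Compounds were preincubated with Tdp1 (1 nM final) for 15 min at room temperature before substrate (15 nM final) started a 5 min reaction; beads (10 ug/ml final) were then added for 10 min before AlphaScreen detection.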
TDP1 cell noCPT: qHTS for Inhibitors of human tyrosyl-DNA phosphodiesterase 1 (TDP1): qHTS in cells in absence of CPT; DT40 Tdp1-/- hTDP1 cells, no CPT, ATP luminescence, 48 h; Potency, µM (doses to about 46.2 µM), actives largely listed as inhibitors; 15% of 420,000 active; AID 686978, 2013; also: nearly all actives have a fitted effect of over 55% in size
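Luminescent ATP content (CellTiter-Glo) served as the growth readout. Knockout chicken DT40 cells expressing human TDP1 were exposed to compounds without camptothecin for a minimum 48 hr at 37 °C.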
DT40 TDP1 CPT: growth inhibition of DT40 Tdp1-/-;hTDP1 cells with camptothecin (screen for TDP1 inhibitors). chicken DT40 Tdp1-/-;hTDP1 cells + 20 nM CPT, ATP luminescence, 48 h. Potency, µM (top dose mostly 46.2 µM), most hits filed as inhibitors. 12% of 420,000 active; also: nearly all actives have a fitted effect of over 55% in size
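Chicken DT40 Tdp1-/- cells complemented with human TDP1, 400 cells/well, exposed to compounds plus 20 nM camptothecin for at least 48 h at 37 C; viability read as ATP content by CellTiter-Glo luminescence.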
Large screens that a line does not name were inactive. Unless noted, calls follow the shape of the dose curve; as a rule, active = well fitted curve in the direction sought with a large enough effect; inconclusive = small, poorly fitted or top-dose-only effect, or another doubt; inactive = no such curve, though single readings can be large; an effect the other way counts as inactive or inconclusive.

O=C(c1ccccc1)N1CCC(c2nc(-c3ccc(S(=O)(=O)N4CCOCC4)cc3)no2)CC1	TDP1 cell noCPT inconclusive, DT40 TDP1 CPT inconclusive
COc1ccccc1C(=O)N1CCC(c2noc(-c3ccc(S(=O)(=O)N4CCCC4)cc3)n2)CC1	miR-21 reporter inconclusive, TDP1 cell noCPT 16µM, DT40 TDP1 CPT 23µM (no result: uPA surface inh)
Cc1cccc(C(=O)N2CCC(c3nc(-c4ccc(S(=O)(=O)N5CCOCC5)cc4)no3)CC2)c1	TDP1 cell noCPT 21µM, DT40 TDP1 CPT 16µM
O=C(Nc1ccc(S(=O)(=O)Nc2ncccn2)cc1)c1cc(=O)c2ccccc2o1	none (no result: uPA surface inh)
Nn1c(Cc2cccc3ccccc23)nnc1SCc1ccc(Cl)c(Cl)c1	none
Nn1c(Cc2cccc3ccccc23)nnc1SCc1c(Cl)cccc1Cl	TDP1 cell noCPT 16µM, DT40 TDP1 CPT inconclusive
COc1ccccc1-c1cc(C(F)(F)F)nc(S(=O)(=O)CCCC(=O)Nc2cccnc2Cl)n1	miR-21 reporter inconclusive, TDP1 cell noCPT 4.6µM, DT40 TDP1 CPT 2.1µM
COc1ccccc1-c1cc(C(F)(F)F)nc(S(=O)(=O)CCCC(=O)Nc2ccccc2F)n1	miR-21 reporter inconclusive, TDP1 cell noCPT 2.6µM, DT40 TDP1 CPT 2.6µM (no result: uPA surface inh)
O=c1[nH]c2ccc(NC(=S)NCc3ccccc3)cc2[nH]1	none (no result: TDP1 inh)
CCOC(=O)Cc1ccc(NC(=O)n2ncc3cc(Cl)ccc32)cc1	none (no result: uPA surface inh)
CCOC(=O)c1ccc(/[N+]([O-])=C/c2ccccc2)cc1	TDP1 cell noCPT inconclusive, DT40 TDP1 CPT 13µM (no result: miR-21 reporter)
C#CCCc1cscc1/C=[N+](\[O-])c1ccc(C(=O)OCC)cc1	TDP1 cell noCPT inconclusive, DT40 TDP1 CPT 23µM (no result: miR-21 reporter)
CCCCN(C=O)c1c(CC)nc2ccc(C(=O)NCCc3ccccn3)cn12	none (no result: miR-21 reporter, uPA surface inh, TDP1 inh)
CCc1ccc2[nH]c(=O)c(C(c3nnnn3CC3CCCO3)N3CCN4CCCC4C3)cc2c1 (stereo not drawn)	none
Cc1c(Cl)cccc1-n1c(SCC(=O)NCc2cccs2)nnc1-c1ccncc1	TDP1 cell noCPT inconclusive
Cc1c(Cl)cccc1-n1c(SCC(=O)NCc2ccccc2Cl)nnc1-c1ccncc1	TDP1 cell noCPT inconclusive, DT40 TDP1 CPT 14µM (no result: uPA surface inh)
CC(=O)Nc1ccc(NC(=O)CSc2nccn2C)cc1	none (no result: uPA surface inh, TDP1 cell noCPT, DT40 TDP1 CPT)
Cc1ccc(NC(=O)c2nc[nH]c2C(=O)NCCCCNC(=O)c2[nH]cnc2C(=O)Nc2ccc(C)cc2)cc1	TDP1 cell noCPT 8.2µM, DT40 TDP1 CPT inconclusive (no result: miR-21 reporter)
Cc1ccc(NC(=O)c2nc[nH]c2C(=O)NCCCNC(=O)c2[nH]cnc2C(=O)Nc2ccc(C)cc2)cc1	TDP1 cell noCPT inconclusive, DT40 TDP1 CPT 16µM (no result: miR-21 reporter)
Cc1ccc(NC(=O)c2nc[nH]c2C(=O)NCCCCCCNC(=O)c2[nH]cnc2C(=O)Nc2ccc(C)cc2)cc1	TDP1 cell noCPT inconclusive, DT40 TDP1 CPT inconclusive (no result: miR-21 reporter)
COc1ccc(-c2c(-c3cc(OC)cc(OC)c3)n(C)c3ccc(-c4ccc(OC)cc4F)cc23)cc1	TDP1 cell noCPT inconclusive, DT40 TDP1 CPT inconclusive (no result: miR-21 reporter)
COc1cc(OC)cc(-c2c(C#Cc3ccsc3)c3cc(-c4cnc(OC)nc4)ccc3n2C)c1	TDP1 cell noCPT inconclusive, DT40 TDP1 CPT 16µM (no result: miR-21 reporter)
COc1ccc(-c2c(-c3cc(OC)cc(OC)c3)n(C)c3ccc(-c4cnc(OC)nc4)cc23)cc1	TDP1 cell noCPT 18µM, DT40 TDP1 CPT 21µM (no result: miR-21 reporter)
CCOC(=O)c1c(NC(=O)COC(=O)Cc2n[nH]c(=O)c3ccccc23)sc(C(=O)NC)c1C	TDP1 cell noCPT inconclusive, DT40 TDP1 CPT inconclusive (no result: miR-21 reporter)
CCCNC(=O)c1ccc2c(c1)sc1nc(-c3ccc(C)cc3)cn12	TDP1 cell noCPT 5.8µM, DT40 TDP1 CPT 5.8µM (no result: uPA surface inh)
Cc1ccc(-c2cn3c(n2)sc2cc(C(=O)NCCC4=CCCCC4)ccc23)cc1	none (no result: uPA surface inh)
CCN(CC)CCCNC(=O)c1ccc2c(c1)sc1nc(-c3ccc(C)cc3)cn12	TDP1 cell noCPT 2.3µM, DT40 TDP1 CPT 2.3µM (no result: uPA surface inh)
O=C(C1CCCCC1)N1C[C@H](n2cc(C3CC3)nn2)[C@@H](O)C[C@@H]1c1ccccc1	none (no result: miR-21 reporter, uPA surface inh, TDP1 inh)
CCCOc1ccc(CN(CCO)CCO)cc1[N+](=O)[O-]	none
CC(C)CO/N=C1/C[C@@H](O)[C@@H](O)[C@@H]2[C@H]3C(=O)N(c4ccc(F)cc4F)C(=O)[C@@H]3CC[C@H]12	none (no result: miR-21 reporter, uPA surface inh, TDP1 cell noCPT, DT40 TDP1 CPT)

Bioassay records: PubChem, National Center for Advancing Translational Sciences (NCATS)
